From ChEMBL document CHEMBL1155699, “Steroidal alkaloids from the leaves of Sarcococca coriacea of Nepalese origin” (J Nat Prod, 2001)

Amino acid sequences for entries named in this document (tags omitted). A change or cut given only in a name is not applied to a line headed by its entry.
UniProt O42275: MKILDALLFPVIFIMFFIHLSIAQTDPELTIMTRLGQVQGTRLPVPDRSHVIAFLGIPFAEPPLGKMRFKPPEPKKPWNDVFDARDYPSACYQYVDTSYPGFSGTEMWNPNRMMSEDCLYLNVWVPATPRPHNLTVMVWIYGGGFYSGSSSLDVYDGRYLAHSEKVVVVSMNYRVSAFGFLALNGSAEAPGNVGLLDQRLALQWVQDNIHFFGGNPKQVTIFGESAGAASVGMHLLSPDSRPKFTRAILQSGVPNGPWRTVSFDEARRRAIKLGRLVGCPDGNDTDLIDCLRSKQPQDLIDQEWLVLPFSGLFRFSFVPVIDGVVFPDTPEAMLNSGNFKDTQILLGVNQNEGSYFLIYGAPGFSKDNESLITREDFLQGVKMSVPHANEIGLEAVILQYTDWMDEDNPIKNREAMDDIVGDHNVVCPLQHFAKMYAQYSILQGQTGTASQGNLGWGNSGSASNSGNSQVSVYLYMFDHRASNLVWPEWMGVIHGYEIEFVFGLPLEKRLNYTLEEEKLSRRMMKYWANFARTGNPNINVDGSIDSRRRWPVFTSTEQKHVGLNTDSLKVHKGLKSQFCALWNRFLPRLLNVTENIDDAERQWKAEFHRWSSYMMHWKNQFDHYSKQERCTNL
UniProt P81908, whole entry: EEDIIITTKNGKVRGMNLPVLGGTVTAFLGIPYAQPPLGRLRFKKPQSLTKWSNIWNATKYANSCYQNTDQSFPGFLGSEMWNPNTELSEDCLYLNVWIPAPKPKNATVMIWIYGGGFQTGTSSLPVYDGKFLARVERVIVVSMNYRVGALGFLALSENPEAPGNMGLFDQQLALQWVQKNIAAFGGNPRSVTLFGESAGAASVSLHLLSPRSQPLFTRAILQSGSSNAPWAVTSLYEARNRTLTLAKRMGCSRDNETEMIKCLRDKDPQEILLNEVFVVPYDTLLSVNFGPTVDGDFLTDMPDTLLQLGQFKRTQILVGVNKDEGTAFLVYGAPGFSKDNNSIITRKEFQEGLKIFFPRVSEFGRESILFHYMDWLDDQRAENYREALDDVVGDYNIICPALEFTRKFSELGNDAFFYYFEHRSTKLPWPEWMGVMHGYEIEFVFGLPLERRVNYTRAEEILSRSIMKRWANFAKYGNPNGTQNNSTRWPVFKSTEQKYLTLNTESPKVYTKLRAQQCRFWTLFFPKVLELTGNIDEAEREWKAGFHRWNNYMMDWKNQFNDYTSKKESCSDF

What was measured:
Acetylcholinesterase = Acetylcholinesterase (Electrophorus electricus, UniProt O42275); assay: Inhibition of electric eel AChE by Ellman's method
Cholinesterase = Cholinesterase (Equus caballus, UniProt P81908); assay: Inhibition of horse BChE

CNC(=O)Oc1ccc2c(c1)[C@]1(C)CCN(C)[C@@H]1N2C [PHYSOSTIGMINE]
IC50 (Acetylcholinesterase): 41 nM
IC50 (Cholinesterase): 857 nM
